Earlier results, collected in patent US20220152045A1 (priority 2012, published 2022).
Some compounds may have been tested in ways that are not shown here.

Details: patients at the age of 65 or more; cited from earlier work

Structure (SMILES): CCC(=O)N(c1ccccc1)C1(C(=O)OC)CCN(CCC(=O)OC)CC1
- Decrease of clearance of remifentanil: 25%
